## Measured melting point values of organic chemicals

From the experimental data distributed with OPERA 2.9.

The melting point is given in degrees Celsius. "via" names the databases from which the curators took the value.

Clc1ccc(OCCCBr)cc1 has mp 31.5 °C (via OCHEM).
COc1ccccc1-c1n[nH]c(=S)o1 has mp 244 °C (via OCHEM).
COc1cc(C=O)ccc1OCc1ccc(Br)cc1 has mp 75 °C (via OCHEM).
O=C(O)CNC(=O)c1cccs1 has mp 170 °C (via OCHEM).
NC(=O)NCC1CC1 has mp 118 °C (via OCHEM).
Cc1ccc(S(=O)(=O)N2CCCCC2)cc1N has mp 108 °C (via OCHEM).
Nc1nc(CN2CCOCC2)cs1 has mp 148 °C (via OCHEM).
CS(=O)(=O)N1CCC(C(=O)O)CC1 has mp 160 °C (via OCHEM).
CCN(CC)CCOC(=O)C1(c2ccccc2)CCCC1.Cl has mp 146 °C (via OCHEM).
Nc1ccc(S(=O)(=O)NCc2ccco2)cc1 has mp 181 °C (via OCHEM).
COc1ccc(N2C(=O)C=CC2=O)c(OC)c1 has mp 126 °C (via OCHEM).
CCCCCCCCCCCCCC[P+](CCCCCC)(CCCCCC)CCCCCC.[Cl-] has mp -66.45 °C (via eChemPortal).
COc1ccc2[nH]c(=O)c(C(=O)O)cc2c1 has mp 310 °C (via OCHEM).
Cc1nc2ccccc2c2c(N)c3ccccc3n12 has mp 201 °C (via OCHEM).
CC(C)CCNC(=O)CC(=O)NCCC(C)C has mp 70 °C (via OCHEM).
CCCCN(CCCC)C(=S)[S-].CCCCN(CCCC)C(=S)[S-].[Zn+2] has mp 105.5 °C (via OCHEM, PubChem).
CCCCCCOc1ccc(C=O)cc1OC has mp 40 °C (via OCHEM).
Cc1ccc(C)c(OCC(=O)NN)c1 has mp 154 °C (via OCHEM).
SCCCCCCCCCS has mp -17.5 °C (via PubChem).
Nc1ccc(OCc2cccc(F)c2)c(Cl)c1 has mp 80 °C (via OCHEM).
NC(=O)NC(C(=O)O)c1ccccc1 (configuration not stated) has mp 202 °C (via OCHEM).
O=C(O)c1c[nH]c(=S)n1-c1ccccc1 has mp 246 °C (via OCHEM).
CC1(C)C2=CCCC(C)(C)[C@]23CC[C@H]1C3 has mp -10.64 °C (via eChemPortal).
COC(=O)c1ccc(C)cc1C1=NC(=O)C(C)(C(C)C)N1 (configuration not stated) has mp 113 °C (via OCHEM).
c1coc(Cc2ccco2)c1 has mp -26 °C (via PubChem).
Nc1ncc(Cc2cc(Cl)ccc2Cl)s1 has mp 112 °C (via OCHEM).
O=C(O)c1cn[nH]c1-c1ccc(Cl)cc1 has mp 277 °C (via OCHEM).
CCOc1ccc(Nc2nc3ccccc3s2)cc1 has mp 170 °C (via OCHEM).
O=C(O)CCC(=O)c1ccc2c(c1)CCC2 has mp 124 °C (via OCHEM).
CC1(c2cccc(Cl)c2)NC(=O)NC1=O (configuration not stated) has mp 201 °C (via OCHEM).
CN1CCC(N2CCNCC2)CC1 has mp 30.5 °C (via OCHEM).
CN1CCC2(CC1)NC(=O)NC2=O has mp 284 °C (via OCHEM).
N#Cc1ccccc1CS(=O)(=O)Cl has mp 86 °C (via OCHEM).
O=CNNc1nc(-c2ccc([N+](=O)[O-])o2)cs1 has mp 215.5 °C (via PubChem).
Cc1cc([N+](=O)[O-])cc(S(=O)(=O)Cl)c1C has mp 67 °C (via OCHEM).
OCC(CO)O[C@H]1O[C@H](CO)[C@@H](O)[C@H](O)[C@H]1O has mp 164.8 °C (via eChemPortal).

The last 4 entries again:

Listed for N#Cc1ccccc1CS(=O)(=O)Cl: mp 86 °C (via OCHEM).
Listed for O=CNNc1nc(-c2ccc([N+](=O)[O-])o2)cs1: mp 215.5 °C (via PubChem).
Listed for Cc1cc([N+](=O)[O-])cc(S(=O)(=O)Cl)c1C: mp 67 °C (via OCHEM).
Listed for OCC(CO)O[C@H]1O[C@H](CO)[C@@H](O)[C@H](O)[C@H]1O: mp 164.8 °C (via eChemPortal).

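The OPERA project collected these measurements from public sources as training and test data for property models. One number stands for a compound and property, with no spread given. Conditions of the individual experiments are not part of the data. A value may pool stereoisomers or salt forms, and the file does not say which form was measured. Some upstream entries may be estimates or bounds without being marked so.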